Values of other authors as cited in PMC3682882 (BMC Pharmacology & Toxicology, 2013).

Settings: cited from earlier work

CN(C)C(=N)N=C(N)N [Metformin, reference compound]
metabolism and metabolic interactions: neither metabolized nor inhibits the metabolism of other drugs
